For one assay, the target named is D2 (Homo sapiens, UniProt P14416). As to the kind of experiment: Receptor binding, D2. Particulars: read-out: D2 maximum inhibition.
Another assay has as its target 5-HT2A (Homo sapiens, UniProt P28223). The assay can be described thus: Receptor binding, 5-HT2A. The note with it: for inhibition at 0.1 µM: read-out: 5-HT2A maximum inhibition.
For another assay, the target named is SERT (Homo sapiens, UniProt P31645). As to the kind of experiment: Receptor binding, SERT.
A further assay has as its target D1 (Homo sapiens, UniProt P21728). As to the kind of experiment: Receptor binding, D1. The note with it: read-out: D1 maximum inhibition.
In a further assay the target is Mu opioid receptor (Homo sapiens, UniProt P35372). As to the kind of experiment: Receptor binding, Mu opioid receptor. Particulars: for inhibition at 0.1 µM: at 100 nM, read-out: Mu maximum inhibition.
Setting [1] is: at 200 nM, read-out: SERT maximum inhibition.
Setting [2] is: (footnote c), read-out: SERT maximum inhibition.

In general, inhibition refers to the share of the control response that was lost under treatment. For orientation: Ki means a dissociation constant, usually derived from enzyme kinetics or from competition with a known ligand. A high value points to weaker binding.

Read-outs that look alike come from different tables or passages of the source.

For `CCCCN1CC[C@H]2[C@@H](C1)c1cccc3c1N2CC(=O)N3` [Ex. 1, (6bR,10aS)-8-butyl-6b,7,8,9,10,10a-hexahydro-1H-pyrido[3′,4′:4,5]pyrrolo[1,2,3-de]quinoxalin-2(3H)-one], the inhibition at 0.1 µM on D2 (at 100 nM) was 15%; on 5-HT2A, < 0%. On SERT (read-out: SERT maximum inhibition), the inhibition at 0.2 µM was < 0%.
As to `O=C1CN2c3c(cccc3[C@@H]3CN(CCCO)CC[C@@H]32)N1` [Ex. 2, (6bR,10aS)-8-(3-hydroxypropyl)-6b,7,8,9,10,10a-hexahydro-1H-pyrido[3′,4′:4,5]pyrrolo[1,2,3-de]quinoxalin-2(3H)-one], the inhibition at 0.1 µM at 5-HT2A was found to be 8%. Further, the inhibition at 0.2 µM on SERT (setting [1]) is < 0%.
Regarding `O=C1CN2c3c(cccc3[C@@H]3CN(CCCOc4ccccc4)CC[C@@H]32)N1` [Ex. 3, (6bR,10aS)-8-(3-phenoxypropyl)-6b,7,8,9,10,10a-hexahydro-1H-pyrido[3′,4′:4,5]-pyrrolo[1,2,3-de]quinoxalin-2(3H)-one], the inhibition at 0.1 µM turned out to be 34% at D2 and 24% on D1. In addition, the Ki on 5-HT2A is 2.84 nM. The inhibition at 50 µM at SERT (at 50 μM (footnote a), read-out: SERT maximum inhibition) was 8%.
With `O=C1CN2c3c(cccc3[C@@H]3CN(CCCC(=O)c4ccc(Cl)s4)CC[C@@H]32)N1` [Ex. 4, (6bR,10aS)-8-(4-(5-chlorothiophen-2-yl)-4-oxobutyl)-6b,7,8,9,10,10a-hexahydro-1H-pyrido[3′,4′:4,5]-pyrrolo[1,2,3-de]quinoxalin-2(3H)-one], the values for the Ki at Mu opioid receptor, on 5-HT2A and on SERT were 8.15 nM, 18.3 nM and 66 nM, respectively. For the same compound, the inhibition at 0.1 µM was found to be 41% on D2 (at 100 nM) and 34% at D1 (at 100 nM).
Take `O=C1CN2c3c(cccc3[C@@H]3CN(CCCOc4ccc(O)cc4)CC[C@@H]32)N1` [Ex. 6, (6bR,10aS)-8-(3-(4-hydroxyphenoxy)propyl)-6b,7,8,9,10,10a-hexahydro-1H-pyrido[3′,4′:4,5]pyrrolo[1,2,3-de]quinoxalin-2(3H)-one]: the inhibition at 0.1 µM is 41% at D2, 77% at 5-HT2A and 0.86% at D1 (at 100 nM). The inhibition at 0.2 µM at SERT (setting [1]) worked out at 11%.
`O=C1CN2c3c(cccc3[C@@H]3CN(CCCOc4ccc(OCc5ccccc5)cc4)CC[C@@H]32)N1` [Ex. 7, (6bR,10aS)-8-(3-(4-(benzyloxy)phenoxy)propyl)-6b,7,8,9,10,10a-hexahydro-1H-pyrido[3′,4′:4,5]-pyrrolo[1,2,3-de]quinoxalin-2(3H)-one]: the inhibition at 0.1 µM is 23% on D2, 76% at 5-HT2A and 4.6% at D1. Further, the inhibition at 0.2 µM on SERT (setting [1]) was 68%.
Regarding `NC(=O)c1cc(F)ccc1OCCCN1CC[C@H]2[C@@H](C1)c1cccc3c1N2CC(=O)N3` [Ex. 8, 5-fluoro-2-(3-((6bR,10aS)-2-oxo-2,3,6b,9,10,10a-hexahydro-1H-pyrido[3′,4′:4,5]pyrrolo[1,2,3-de]quinoxalin-8(7H)-yl)propoxy)benzamide], the inhibition at 100 µM on D2 (at 100 μM (footnote b)) was < 0%. Moreover, the inhibition at 0.1 µM at 5-HT2A is 14%; on D1 (at 100 nM), 0.78%. Besides, the inhibition at 0.2 µM at SERT (setting [1]) amounted to 9.6%.
Take `O=C1CN2c3c(cccc3[C@@H]3CN(CCCOc4ccc(F)c(F)c4)CC[C@@H]32)N1` [Ex. 9, (6bR,10aS)-8-(3-(3,4-difluorophenoxy)propyl)-6b,7,8,9,10,10a-hexahydro-1H-pyrido[3′,4′:4,5]pyrrolo-[1,2,3-de]quinoxalin-2(3H)-one]: the Ki on Mu opioid receptor amounted to 1.83 nM; at 5-HT2A, 16.1 nM. Moreover, the inhibition at 0.1 µM at D2 was determined as 7%; at D1, 15%. Besides, the inhibition at 0.2 µM on SERT (setting [2]) amounted to 15%.
As to `Cc1cc(F)cc(C)c1OCCCN1CC[C@H]2[C@@H](C1)c1cccc3c1N2CC(=O)N3` [Ex. 11, (6bR,10aS)-8-(3-(4-fluoro-2,6-dimethylphenoxy)propyl)-6b,7,8,9,10,10a-hexahydro-1H-pyrido[3′,4′:4,5]-pyrrolo[1,2,3-de]quinoxalin-2(3H)-one], the results for the inhibition at 0.1 µM at D2 (at 100 nM), at 5-HT2A and on D1 (at 100 nM) were < 0%, 40% and < 0%, respectively. Besides, the inhibition at 0.2 µM at SERT (setting [2]) turned out to be 34%.
With `O=C1Nc2cccc3c2N([C@H]2CCN(CCCOc4ccc(F)cc4)C[C@@H]32)C1(F)F` [Ex. 13, (6bR,10aS)-1,1-difluoro-8-(3-(4-fluorophenoxy)propyl)-6b,7,8,9,10,10a-hexahydro-1H-pyrido[3′,4′:4,5]pyrrolo[1,2,3-de]quinoxalin-2(3H)-one], the inhibition at 0.1 µM was < 0% on Mu opioid receptor, 7% at D2 (at 100 nM), 21% at 5-HT2A (at 100 nM) and 24% on D1 (at 100 nM). Also, the inhibition at 0.2 µM on SERT (setting [1]) was 6%.
With `CC(=O)Nc1cccc2c1N[C@H]1CCN(CCCOc3ccc(F)cc3)C[C@@H]21` [Ex. 14, N-((4aS,9bR)-2-(3-(4-fluorophenoxy)propyl)-2,3,4,4a,5,9b-hexahydro-1H-pyrido[4,3-b]indol-6-yl)acetamide], the inhibition at 0.1 µM came out at 9% on Mu opioid receptor, 11% on D2 (at 100 nM), 67% at 5-HT2A (at 100 nM) and 25% on D1 (at 100 nM). For the same compound, the inhibition at 0.2 µM on SERT (setting [1]) is 4%.
For `CC(=O)Nc1cccc2c1N[C@H]1CCN(CCCC(=O)c3ccc(F)cc3)C[C@@H]21` [Ex. 15, N-((4aS,9bR)-2-(4-(4-fluorophenyl)-4-oxobutyl)-2,3,4,4a,5,9b-hexahydro-1H-pyrido[4,3-b]indol-6-yl)acetamide], the inhibition at 0.1 µM on Mu opioid receptor was found to be 11%; at D2 (at 100 nM), 49%; at 5-HT2A (at 100 nM), 80%; at D1 (at 100 nM) it was 45%. Further, the inhibition at 0.2 µM on SERT (setting [1]) was < 0%.
On the same counts, the results for `CC(=O)Nc1cccc2c1N[C@H]1CCN(CCCC(O)c3ccc(F)cc3)C[C@@H]21` (stereo partly drawn) [Ex. 16, N-((4aS,9bR)-2-(4-(4-fluorophenyl)-4-hydroxybutyl)-2,3,4,4a,5,9b-hexahydro-1H-pyrido[4,3-b]indol-6-yl)acetamide] are < 0%, < 0%, < 0%, < 0% and < 0%.
In the case of `Cc1cc(F)ccc1OCCCN1CC[C@H]2[C@@H](C1)c1cccc3c1N2CC(=O)N3` [Ex. 18], the Ki at Mu opioid receptor was determined as 2.9 nM; on 5-HT2A, 0.4 nM. The values for the inhibition at 0.1 µM at D2 (at 100 nM) and on D1 (at 100 nM) were 69% and 40%, respectively. Besides, the inhibition at 0.2 µM on SERT (setting [1]) was 32%.
As for `O=C1CN2c3c(cccc3[C@@H]3CN(CCCOc4ccc(F)cc4)CC[C@@H]32)N1` [Fm. A, (6bR,10aS)-8-(3-(4-fluorophenoxy)propyl)-6b,7,8,9,10,10a-hexahydro-1H-pyrido[3′,4′:4,5]pyrrolo[1,2,3-de]quinoxalin-2(3H)-one, reference compound], the inhibition at 0.1 µM at D1 is 44%.
In the case of `O=C1CN2c3c(cccc3[C@@H]3CN(CCCS(=O)(=O)c4ccc(F)cc4)CC[C@@H]32)N1` [compound 12, (6bR,10aS)-8-(3-((4-fluorophenyl)sulfonyl)propyl)-6b,7,8,9,10,10a-hexahydro-1H-pyrido[3′,4′:4,5]pyrrolo-[1,2,3-de]quinoxalin-2(3H)-one], the inhibition at 0.1 µM is < 0% at Mu opioid receptor and 33% on 5-HT2A. For the same compound, the inhibition at 0.2 µM on SERT (setting [1]) is < 0%.
